Test results reported in ChEMBL document CHEMBL6182920, “The Discovery of C7-Substituted Norbornyl Bisamides as RXFP1 Small Molecule Agonists” (J Med Chem, 2025).

The compounds below were run against T1, Relaxin receptor 1 (Mus musculus) (UniProt Q6R6I7) (assay: Partial agonist activity at mouse RXFP1 stably expressed in HEK293 cells assessed as intracellular cAMP accumulation by measuring maximal efficacy incubated for 30 mins by HTRF assay relative to control). Conditions: filed as partial agonist.
T1 sequence (whole entry): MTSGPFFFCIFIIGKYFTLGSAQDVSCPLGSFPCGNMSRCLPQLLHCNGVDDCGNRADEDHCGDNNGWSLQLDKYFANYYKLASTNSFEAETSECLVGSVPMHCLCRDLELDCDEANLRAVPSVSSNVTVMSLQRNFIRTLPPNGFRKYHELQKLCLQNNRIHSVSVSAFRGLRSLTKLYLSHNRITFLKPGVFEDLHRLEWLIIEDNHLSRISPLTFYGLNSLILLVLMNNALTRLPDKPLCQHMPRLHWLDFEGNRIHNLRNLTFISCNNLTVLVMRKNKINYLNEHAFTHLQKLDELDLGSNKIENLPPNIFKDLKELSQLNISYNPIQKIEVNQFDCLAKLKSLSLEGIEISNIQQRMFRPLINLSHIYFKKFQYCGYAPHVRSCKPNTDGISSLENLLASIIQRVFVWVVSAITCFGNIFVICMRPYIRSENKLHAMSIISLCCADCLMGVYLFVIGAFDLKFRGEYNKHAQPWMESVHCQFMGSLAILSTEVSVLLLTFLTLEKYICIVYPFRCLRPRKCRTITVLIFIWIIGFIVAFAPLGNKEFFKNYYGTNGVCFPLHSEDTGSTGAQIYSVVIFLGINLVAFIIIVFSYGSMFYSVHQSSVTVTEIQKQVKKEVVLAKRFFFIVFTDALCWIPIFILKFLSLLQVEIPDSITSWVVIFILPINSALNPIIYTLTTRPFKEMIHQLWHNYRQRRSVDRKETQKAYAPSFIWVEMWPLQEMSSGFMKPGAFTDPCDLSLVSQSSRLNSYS
Type: functional, cell-based

Row | Emax [%] | Compound
1 | 64 | COc1ccc(-c2cc(C(=O)O)ccc2F)cc1C(=O)N[C@H]1[C@@H](C(=O)Nc2ccc(F)c(C(F)(F)F)c2)[C@H]2CC[C@@H]1/C2=C\c1cnoc1
2 | 77 | COc1ccc(-c2cc(C(=O)O)ccc2F)cc1C(=O)N[C@H]1[C@@H](C(=O)Nc2ccc(F)c(C(F)(F)F)c2)[C@H]2CC[C@@H]1/C2=C\C(F)(F)F
3 | 52 | COc1ccc(-c2ccc(C(=O)O)cc2)cc1C(=O)N[C@H]1[C@@H](C(=O)Nc2ccc(F)c(C(F)(F)F)c2)[C@H]2CC[C@@H]1C2=C(C)C

Each compound was assayed against T2, Relaxin receptor 1 (Rattus norvegicus) (UniProt Q6R6I6) (assay: Agonist activity at rat RXFP1 stably expressed in HEK293 cells assessed as intracellular cAMP accumulation by measuring maximal efficacy incubated for 30 mins by HTRF assay). Conditions: filed as agonist.
T2 sequence (whole entry): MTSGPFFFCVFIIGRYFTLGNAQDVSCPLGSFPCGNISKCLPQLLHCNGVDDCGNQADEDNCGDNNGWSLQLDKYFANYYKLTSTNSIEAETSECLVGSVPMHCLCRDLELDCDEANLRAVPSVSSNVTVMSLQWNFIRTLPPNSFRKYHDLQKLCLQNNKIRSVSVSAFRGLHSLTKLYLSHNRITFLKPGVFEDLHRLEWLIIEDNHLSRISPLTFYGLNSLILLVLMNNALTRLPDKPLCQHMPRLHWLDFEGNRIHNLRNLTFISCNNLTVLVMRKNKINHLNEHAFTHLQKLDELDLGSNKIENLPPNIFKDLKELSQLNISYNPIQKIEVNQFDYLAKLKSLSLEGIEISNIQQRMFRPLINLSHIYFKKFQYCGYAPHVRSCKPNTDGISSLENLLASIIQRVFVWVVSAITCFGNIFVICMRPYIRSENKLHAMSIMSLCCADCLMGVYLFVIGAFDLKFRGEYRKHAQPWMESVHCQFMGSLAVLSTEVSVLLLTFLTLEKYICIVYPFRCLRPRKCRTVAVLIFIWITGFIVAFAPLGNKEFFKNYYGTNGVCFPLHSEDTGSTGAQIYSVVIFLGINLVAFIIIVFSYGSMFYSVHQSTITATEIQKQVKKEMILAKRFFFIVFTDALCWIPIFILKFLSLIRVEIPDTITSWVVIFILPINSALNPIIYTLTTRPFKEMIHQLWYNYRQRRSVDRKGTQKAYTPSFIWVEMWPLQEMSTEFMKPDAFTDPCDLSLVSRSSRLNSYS
Type: cell-based

Row | Compound | Emax [%]
4 | CNC(=O)OC(C(=O)O)c1ccc(F)c(-c2ccc(OC)c(C(=O)N[C@H]3[C@@H](C(=O)Nc4ccc(F)c(C(F)(F)F)c4)[C@H]4CC[C@@H]3/C4=C\C3CC3)c2)c1 (stereo in doubt; 39) | 190
5 | CNC(=O)OC(C(=O)O)c1ccc(F)c(-c2ccc(OC)c(C(=O)N[C@H]3[C@@H](C(=O)Nc4ccc(F)c(C(F)(F)F)c4)[C@H]4CC[C@@H]3/C4=C\c3cnoc3)c2)c1 (some centres not stated) | 100
6 | CNC(=O)OC(C(=O)O)c1ccc(F)c(-c2ccc(OC)c(C(=O)N[C@H]3[C@@H](C(=O)Nc4ccc(F)c(C(F)(F)F)c4)[C@H]4CC[C@@H]3/C4=C\C3CC3)c2)c1 (stereo in doubt; 40) | 170
7 | COc1ccc(-c2cc(C(=O)NS(C)(=O)=O)ccc2F)cc1C(=O)N[C@H]1[C@@H](C(=O)Nc2ccc(F)c(C(F)(F)F)c2)[C@H]2CC[C@@H]1/C2=C\c1cnoc1 | 64

Second part, the compound after the results:

Row | Emax [%] | Compound
8 | 71 | COc1ccc(-c2cc(C(=O)O)ccc2F)cc1C(=O)N[C@H]1[C@@H](C(=O)Nc2ccc(F)c(C(F)(F)F)c2)[C@H]2CC[C@@H]1/C2=C\c1cnoc1
9 | 94 | COc1ccc(-c2cc(C(O)C(=O)O)ccc2F)cc1C(=O)N[C@H]1[C@@H](C(=O)Nc2ccc(F)c(C(F)(F)F)c2)[C@H]2CC[C@@H]1/C2=C\c1cnoc1 (some centres not stated)
10 | 60 | COc1ccc(-c2cc(CC(=O)O)ccc2F)cc1C(=O)N[C@H]1[C@@H](C(=O)Nc2ccc(F)c(C(F)(F)F)c2)[C@H]2CC[C@@H]1/C2=C\c1cnoc1

Each compound was assayed against T2, Relaxin receptor 1 (Rattus norvegicus) (assay: Agonist activity at rat RXFP1 stably expressed in HEK293 cells at 10 uM incubated for 30 mins by HTRF assay). Conditions: not given.
Type: cell-based

Row | Compound | Activity
11 | COc1cc(F)c(F)cc1C(=O)N[C@H]1[C@@H](C(=O)Nc2ccc(F)c(C(F)(F)F)c2)[C@H]2CC[C@@H]1/C2=C1/C=Cc2ccccc21 | inactive
12 | COc1cc(F)c(F)cc1C(=O)N[C@H]1[C@@H](C(=O)Nc2ccc(F)c(C(F)(F)F)c2)[C@H]2CC[C@@H]1C2=C(C)C | inactive
13 | COc1cc(F)c(F)cc1C(=O)N[C@H]1[C@@H](C(=O)Nc2ccc(F)c(C(F)(F)F)c2)[C@@H]2CC[C@@H]1C2C(C)C (stereo in doubt) | inactive
14 | COc1cc(F)c(F)cc1C(=O)N[C@H]1[C@@H](C(=O)Nc2ccc(F)c(C(F)(F)F)c2)[C@H]2CC[C@@H]1/C2=C\c1ccccc1 | inactive
15 | COc1cc(F)c(F)cc1C(=O)N[C@@H]1[C@@H]2CC[C@@H](C2)[C@@H]1C(=O)Nc1ccc(F)c(C(F)(F)F)c1 | inactive

Continued, values first:

Row | Activity | Compound
16 | inactive | COc1cc(F)c(F)cc1C(=O)N[C@H]1[C@@H](C(=O)Nc2ccc(F)c(C(F)(F)F)c2)[C@H]2CC[C@@H]1/C2=C\c1cocn1
17 | inactive | COc1cc(F)c(F)cc1C(=O)N[C@H]1[C@@H](C(=O)Nc2ccc(F)c(C(F)(F)F)c2)[C@@H]2CC[C@@H]1C2C(C)C (single isomer, unassigned; isomer 2)
18 | inactive | C=C1[C@H]2CC[C@@H]1[C@H](C(=O)Nc1ccc(F)c(C(F)(F)F)c1)[C@@H]2NC(=O)c1cc(F)c(F)cc1OC
19 | inactive | COc1cc(F)c(F)cc1C(=O)N[C@H]1[C@@H](C(=O)Nc2ccc(F)c(C(F)(F)F)c2)[C@H]2CC[C@@H]1/C2=C\C(F)(F)F
20 | inactive | COc1cc(F)c(F)cc1C(=O)N[C@H]1[C@@H](C(=O)Nc2ccc(F)c(C(F)(F)F)c2)[C@H]2CC[C@@H]1/C2=C/c1ccccc1
21 | inactive | COc1cc(F)c(F)cc1C(=O)N[C@H]1[C@@H](C(=O)Nc2ccc(F)c(C(F)(F)F)c2)[C@H]2CC[C@@H]1C2=CC1CC1
22 | inactive | COc1cc(F)c(F)cc1C(=O)N[C@H]1[C@@H](C(=O)Nc2ccc(F)c(C(F)(F)F)c2)[C@H]2CC[C@@H]1/C2=C\c1c(Cl)cccc1Cl

Each compound was assayed against T1, Relaxin receptor 1 (Mus musculus) (assay: Agonist activity at mouse RXFP1 stably expressed in HEK293 cells assessed as intracellular cAMP accumulation by measuring maximal efficacy incubated for 30 mins by HTRF assay relative to control). Conditions: not given.
Type: functional, cell-based

Row | Compound | Emax [%]
23 | COc1ccc(-c2cccnc2)cc1C(=O)N[C@H]1[C@@H](C(=O)Nc2ccc(F)c(C(F)(F)F)c2)[C@H]2CC[C@@H]1C2=C(C)C | 30
24 | COC(=O)c1ccc(F)c(-c2ccc(OC)c(C(=O)N[C@H]3[C@@H](C(=O)Nc4ccc(F)c(C(F)(F)F)c4)[C@H]4CC[C@@H]3C4=C(C)C)c2)c1 | 22

The next lines start with the values.

Row | Emax [%] | Compound
25 | 7 | COc1ccc(-c2ccncc2)cc1C(=O)N[C@H]1[C@@H](C(=O)Nc2ccc(F)c(C(F)(F)F)c2)[C@H]2CC[C@@H]1C2=C(C)C
26 | 3 | COc1ccc(-c2ccccc2C(=O)O)cc1C(=O)N[C@H]1[C@@H](C(=O)Nc2ccc(F)c(C(F)(F)F)c2)[C@H]2CC[C@@H]1C2=C(C)C

Same assay, conditions: filed as agonist

Row | Compound | Emax [%]
27 | COc1ccc(-c2cc(O)ccc2F)cc1C(=O)N[C@H]1[C@@H](C(=O)Nc2ccc(F)c(C(F)(F)F)c2)[C@H]2CC[C@@H]1/C2=C\c1cnoc1 | 74
28 | CNC(=O)OC(C(=O)O)c1ccc(F)c(-c2ccc(OC)c(C(=O)N[C@H]3[C@@H](C(=O)Nc4ccc(F)c(C(F)(F)F)c4)[C@H]4CC[C@@H]3/C4=C\C3CC3)c2)c1 (stereo in doubt; 39) | 150
29 | COc1ccc(-c2cc(C(=O)O)ccc2F)cc1C(=O)N[C@H]1[C@@H](C(=O)Nc2ccc(F)c(C(F)(F)F)c2)[C@H]2CC[C@@H]1/C2=C\C1CC1 | 140
30 | COc1ccc(-c2cc(C(=O)O)ccc2C)cc1C(=O)N[C@H]1[C@@H](C(=O)Nc2ccc(F)c(C(F)(F)F)c2)[C@H]2CC[C@@H]1C2=C(C)C | 110
31 | COc1ccc(-c2cccc(C(=O)O)c2)cc1C(=O)N[C@H]1[C@@H](C(=O)Nc2ccc(F)c(C(F)(F)F)c2)[C@H]2CC[C@@H]1C2=C(C)C | 110
32 | CNC(=O)OC(C(=O)O)c1ccc(F)c(-c2ccc(OC)c(C(=O)N[C@H]3[C@@H](C(=O)Nc4ccc(F)c(C(F)(F)F)c4)[C@H]4CC[C@@H]3/C4=C\c3cnoc3)c2)c1 (some centres not stated) | 73
33 | CNC(=O)OC(C(=O)O)c1ccc(F)c(-c2ccc(OC)c(C(=O)N[C@H]3[C@@H](C(=O)Nc4ccc(F)c(C(F)(F)F)c4)[C@H]4CC[C@@H]3/C4=C\C3CC3)c2)c1 (stereo in doubt; 40) | 150
34 | COc1ccc(-c2cc(C(=O)O)ccc2F)cc1C(=O)N[C@H]1[C@@H](C(=O)Nc2ccc(F)c(C(F)(F)F)c2)[C@H]2CC[C@@H]1C2=C(C)C | 110
35 | COc1ccc(-c2cc(C(=O)O)ccc2OC)cc1C(=O)N[C@H]1[C@@H](C(=O)Nc2ccc(F)c(C(F)(F)F)c2)[C@H]2CC[C@@H]1C2=C(C)C | 90
36 | COc1ccc(-c2cc(C(=O)NS(C)(=O)=O)ccc2F)cc1C(=O)N[C@H]1[C@@H](C(=O)Nc2ccc(F)c(C(F)(F)F)c2)[C@H]2CC[C@@H]1/C2=C\c1cnoc1 | 53
37 | COc1ccc(-c2cncnc2)cc1C(=O)N[C@H]1[C@@H](C(=O)Nc2ccc(F)c(C(F)(F)F)c2)[C@H]2CC[C@@H]1C2=C(C)C | 46

Next, values leading:

Row | Emax [%] | Compound
38 | 94 | COc1ccc(-c2cc(C(=O)O)ccc2F)cc1C(=O)N[C@H]1[C@@H](C(=O)Nc2ccc(F)c(C(F)(F)F)c2)[C@H]2CC[C@@H]1/C2=C\c1ccccc1
39 | 78 | COc1ccc(-c2cc(C(O)C(=O)O)ccc2F)cc1C(=O)N[C@H]1[C@@H](C(=O)Nc2ccc(F)c(C(F)(F)F)c2)[C@H]2CC[C@@H]1/C2=C\c1cnoc1 (some centres not stated)
40 | 40 | COc1ccc(-c2cncn2C)cc1C(=O)N[C@H]1[C@@H](C(=O)Nc2ccc(F)c(C(F)(F)F)c2)[C@H]2CC[C@@H]1C2=C(C)C
41 | 86 | COc1ccc(-c2cc(C(N)=O)ccc2F)cc1C(=O)N[C@H]1[C@@H](C(=O)Nc2ccc(F)c(C(F)(F)F)c2)[C@H]2CC[C@@H]1/C2=C\c1cnoc1
42 | 57 | COc1ccc(-c2cc(CC(=O)O)ccc2F)cc1C(=O)N[C@H]1[C@@H](C(=O)Nc2ccc(F)c(C(F)(F)F)c2)[C@H]2CC[C@@H]1/C2=C\c1cnoc1

Calls of active or inactive are those of the source. No cut-off for these calls is given here.
